IC50 data for 1 molecule are collected here from ChEMBL document CHEMBL5726342, “NMDA receptor modulators and uses related thereto” (2017).

The test can be described thus: Inhibition Assay: Two-electrode voltage-clamp recordings were made from Xenopus laevis oocytes expressing recombinant rat GluN1/GluN2A, GluN1/GluN2B, GluN1/GluN2C, GluN1/GluN2D, GluA1, or GluK2 receptors following injection of 5-10 ng of cRNA synthesized according to manufacturers' protocols (Ambin, mMessage, mMachine). cDNAs used were rat GluN1-1a (GenBank accession numbers U11418 and U08261; hereafter GluN1), GluN2A (D13211), GluN2B (U11419), GluN2C (M91563), GluN2D (L31611), GluA1 (X17184), GluK2 (Z11548). The current under voltage-clamp was recorded during perfusion with recording solution containing (in mM) 90 NaCl, 1.0 KCl, 0.5 BaCl2, 0.005 EDTA, and 10 HEPES at pH 7.4 (23° C.). Glass micropipettes had resistances of 0.3-1.0 MS2 and were filled with 3.0 M KCl. The membrane potential was clamped at −40 mV during the experiment. Recordings were digitized at 10 Hz and analyzed off line. 20 mM stock solutions of test compounds in 100% DMSO were made and diluted to obtain the final concentration; final DMSO content was 0.05-0.5% (vol/vol). Oocytes expressing GluK2 homomeric receptors were first treated with 10 μM concanavalin A (10 minutes). NMDA receptor responses were obtained by challenging oocytes with 100 μM glutamate plus 30 μM glycine; GluA1 and GluK2 receptors responses were recorded during application of 100 μM glutamate. […]. Format: cell-based. On the technique in general: Two-electrode voltage clamp is typically applied to oocytes expressing channels or transporters.

pIC50: −log10 of the molar value.

In general, pIC50 refers to the IC50 on a negative log10 scale, so that one unit is a factor of ten. In the case of `CC(=O)C1=C(O)C(=O)N(CCc2c[nH]c3ccccc23)C1c1ccc(C)cc1` (stereo unspecified), the pIC50 is 4.62.
